{
  "sequences": {"note": "Sequences of proteins named here, by UniProt entry; tags and fusion partners are left off.", "UniProt Q6Q2C2, whole entry": "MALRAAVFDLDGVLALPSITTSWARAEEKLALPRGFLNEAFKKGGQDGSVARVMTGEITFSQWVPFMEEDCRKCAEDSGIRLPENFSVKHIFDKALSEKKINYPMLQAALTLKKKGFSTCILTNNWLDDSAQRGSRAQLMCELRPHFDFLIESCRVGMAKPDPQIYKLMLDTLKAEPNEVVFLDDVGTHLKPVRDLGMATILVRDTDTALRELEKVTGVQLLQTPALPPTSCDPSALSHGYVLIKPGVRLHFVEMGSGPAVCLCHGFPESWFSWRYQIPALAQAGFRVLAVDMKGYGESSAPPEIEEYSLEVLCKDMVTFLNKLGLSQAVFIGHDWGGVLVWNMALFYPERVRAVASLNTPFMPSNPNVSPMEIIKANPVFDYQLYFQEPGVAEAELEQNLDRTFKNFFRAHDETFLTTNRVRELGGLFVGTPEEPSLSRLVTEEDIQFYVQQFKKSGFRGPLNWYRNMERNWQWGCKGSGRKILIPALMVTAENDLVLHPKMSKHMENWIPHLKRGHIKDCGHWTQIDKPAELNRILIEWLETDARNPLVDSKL"},
  "source": "paper PMC12457078",
  "about": "“Inhibition of soluble epoxide hydrolase in endotoxin induced pig lung injury” (Frontiers in Pharmacology, 2025)",
  "biological_target": "Recombinant porcine sEH (Sus scrofa, UniProt Q6Q2C2)",
  "assay": "fluorescent activity assay (MNPC substrate), sEH inhibition potency",
  "data": [
    {"smiles": "O=C(O)CCCCCCCCCCCNC(=O)NC12CC3CC(CC(C3)C1)C2", "note": "[Compound 700]", "values": [
      {"measurement": "IC50", "value": 4, "unit": "nM"}
    ]}
  ]
}
